Assays:
[1] = target: T1, Alpha-1A adrenergic receptor (Rattus norvegicus, UniProt P43140)
T1 sequence (P43140 whole entry): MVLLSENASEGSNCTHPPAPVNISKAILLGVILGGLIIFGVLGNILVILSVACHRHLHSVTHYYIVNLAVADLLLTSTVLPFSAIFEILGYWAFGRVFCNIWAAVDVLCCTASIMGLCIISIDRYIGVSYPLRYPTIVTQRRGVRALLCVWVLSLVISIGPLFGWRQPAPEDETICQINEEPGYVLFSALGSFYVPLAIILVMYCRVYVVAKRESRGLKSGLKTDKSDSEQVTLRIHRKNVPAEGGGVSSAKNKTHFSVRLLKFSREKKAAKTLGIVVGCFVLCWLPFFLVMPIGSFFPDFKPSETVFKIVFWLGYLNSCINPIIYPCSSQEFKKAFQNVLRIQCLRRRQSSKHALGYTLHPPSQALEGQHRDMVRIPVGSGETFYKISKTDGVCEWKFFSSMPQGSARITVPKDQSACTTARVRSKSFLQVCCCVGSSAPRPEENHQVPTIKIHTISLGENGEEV

Amino acid sequences for entries named in this document (tags omitted). A change or cut given only in a name is not applied to a line headed by its entry.
UniProt P28221: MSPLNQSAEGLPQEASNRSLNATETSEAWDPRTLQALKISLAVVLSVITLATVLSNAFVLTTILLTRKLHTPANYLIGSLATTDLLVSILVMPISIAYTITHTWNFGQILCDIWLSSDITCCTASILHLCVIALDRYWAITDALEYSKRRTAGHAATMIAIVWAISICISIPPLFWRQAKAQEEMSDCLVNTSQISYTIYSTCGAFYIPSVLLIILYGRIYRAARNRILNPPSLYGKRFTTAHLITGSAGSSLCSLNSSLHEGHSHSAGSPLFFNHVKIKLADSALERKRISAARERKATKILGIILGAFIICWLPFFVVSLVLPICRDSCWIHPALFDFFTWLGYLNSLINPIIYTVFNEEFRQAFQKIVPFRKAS
UniProt P28222, whole entry: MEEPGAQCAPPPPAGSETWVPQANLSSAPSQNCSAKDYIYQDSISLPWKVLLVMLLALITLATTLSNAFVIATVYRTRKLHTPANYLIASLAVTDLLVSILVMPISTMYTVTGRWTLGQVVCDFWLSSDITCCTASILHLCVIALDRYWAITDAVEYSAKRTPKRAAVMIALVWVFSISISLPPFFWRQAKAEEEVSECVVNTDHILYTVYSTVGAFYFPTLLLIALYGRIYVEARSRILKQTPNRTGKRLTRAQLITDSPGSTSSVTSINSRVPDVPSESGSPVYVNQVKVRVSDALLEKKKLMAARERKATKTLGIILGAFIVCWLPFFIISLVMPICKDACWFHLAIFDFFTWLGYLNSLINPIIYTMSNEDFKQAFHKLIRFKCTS

[2] = target: 5-hydroxytryptamine receptor 1D (Homo sapiens, UniProt P28221)
[3] = target: 5-hydroxytryptamine receptor 1B (Homo sapiens, UniProt P28222)

SMILES	Ki [1]	Ki [2]	Ki [3]
COC(=O)[C@@H]1[C@H]2C[C@H]3c4[nH]c5ccccc5c4CCN3C[C@@H]2CC[C@@H]1O [yohimbic acid methyl ester]	0.251 µM	–	–
Fc1cccc2c1OC1CNCC1O2 (stereo not drawn) [CAS_105182-45-4]	–	1 µM	1 µM

From BindingDB's records for doi:10.1002/(SICI)1098-2396(200002)35:2<79::AID-SYN1>3.0.CO;2-X (Institut De Recherches Servier, 2000)
